Results on one substance are retold here after doi:10.1101/388546.

Chains of the proteins cited; added tags and fusions are not shown. Lines headed by an entry give the natural chain unless they say otherwise; changes in a name come on top.
UniProt P64604: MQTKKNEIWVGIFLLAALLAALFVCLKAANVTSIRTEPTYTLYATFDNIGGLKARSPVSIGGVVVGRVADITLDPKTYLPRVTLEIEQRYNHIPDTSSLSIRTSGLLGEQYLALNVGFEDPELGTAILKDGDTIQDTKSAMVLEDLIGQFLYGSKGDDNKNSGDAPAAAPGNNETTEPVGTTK

The target in the assay is MlaD periplasmic domain lacking its N-terminal membrane anchor (UniProt P64604). In words: SEC. Background: Size exclusion chromatography separates by hydrodynamic size, large species first.

As usually defined, the stoichiometry N is the number of molecules, sites or subunits per partner or assembly. Take “MlaD periplasmic domain lacking its N-terminal membrane anchor (from UniProt P64604 23-183) (domain or fragment)”: the stoichiometry N turned out to be 6.
